Target: wtKIT (Homo sapiens, UniProt P10721)
Assay: HTRF biochemical assay, wtKIT (phosphorylation of a peptide substrate)
Settings: read-out: KIT Biochemical IC50 avg, Table 4

Chains of the proteins cited; added tags and fusions are not shown. Residues count along the entry.
UniProt P10721, 26-976 limits assumed: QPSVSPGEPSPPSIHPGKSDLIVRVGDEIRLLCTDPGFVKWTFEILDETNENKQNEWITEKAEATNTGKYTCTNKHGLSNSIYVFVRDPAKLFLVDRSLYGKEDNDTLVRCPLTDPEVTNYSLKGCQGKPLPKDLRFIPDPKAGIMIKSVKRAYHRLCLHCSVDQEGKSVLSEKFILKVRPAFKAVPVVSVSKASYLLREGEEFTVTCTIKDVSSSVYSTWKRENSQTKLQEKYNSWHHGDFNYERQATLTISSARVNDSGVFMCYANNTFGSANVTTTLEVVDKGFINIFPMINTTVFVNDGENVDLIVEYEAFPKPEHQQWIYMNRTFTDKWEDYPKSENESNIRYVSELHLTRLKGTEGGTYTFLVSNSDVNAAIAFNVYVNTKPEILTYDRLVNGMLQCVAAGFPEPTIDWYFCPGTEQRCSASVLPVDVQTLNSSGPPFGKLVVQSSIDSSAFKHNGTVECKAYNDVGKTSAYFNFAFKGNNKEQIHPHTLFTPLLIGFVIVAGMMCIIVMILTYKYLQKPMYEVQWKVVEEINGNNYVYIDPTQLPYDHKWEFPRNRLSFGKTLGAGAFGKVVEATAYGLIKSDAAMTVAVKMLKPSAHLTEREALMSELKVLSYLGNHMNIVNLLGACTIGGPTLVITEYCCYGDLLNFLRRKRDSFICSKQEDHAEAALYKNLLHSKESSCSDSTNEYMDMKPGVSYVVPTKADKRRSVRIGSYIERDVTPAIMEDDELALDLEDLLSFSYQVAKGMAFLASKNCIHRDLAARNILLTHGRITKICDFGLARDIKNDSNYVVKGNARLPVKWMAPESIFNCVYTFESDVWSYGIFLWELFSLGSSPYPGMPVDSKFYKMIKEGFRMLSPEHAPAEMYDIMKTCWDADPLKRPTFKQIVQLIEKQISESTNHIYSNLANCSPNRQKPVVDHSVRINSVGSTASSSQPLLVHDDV

SMILES	IC50
Cc1ccc(-c2noc(C[C@@H](C)O)n2)cc1NC(=O)c1cnc2cc(OCCCN3CCCC3)ccn12	< 0.05 µM
Cc1ccc(-c2noc(C[C@H]3CCCO3)n2)cc1NC(=O)c1cnc2cc(-c3cscn3)ccn12	< 0.05 µM
CCC(O)Cc1nc(-c2ccc(C)c(NC(=O)c3cnc4cc(OCCCN5CCCC5)ccn34)c2)no1 (single isomer, unassigned)	< 0.05 µM
Cc1ccc(-c2noc(C3CC(C)N3)n2)cc1NC(=O)c1cnc2cc(F)ccn12 (single isomer, unassigned)	0.05 to 0.5 µM
Cc1ccc(-c2noc(C3CC(O)C3)n2)cc1NC(=O)c1cnc2cc(-c3ccn(C)n3)ccn12 (single isomer, unassigned)	< 0.05 µM
Cc1ccc(-c2noc(CC(O)C(F)F)n2)cc1NC(=O)c1cnc2cc(COCC(C)(C)O)ccn12 (single isomer, unassigned)	< 0.05 µM
Cc1ccc(-c2noc(CC3CCCO3)n2)cc1NC(=O)c1cnc2cc(Cl)ccn12 (single isomer, unassigned)	< 0.05 µM
Cc1ccc(-c2noc([C@H]3C[C@@H]3F)n2)cc1NC(=O)c1cnc2cc(COCC(O)C(F)(F)F)ccn12 (single isomer, unassigned)	0.05 to 0.5 µM
Cc1ccc(-c2noc([C@H]3C[C@@H]3F)n2)cc1NC(=O)c1cnc2cc(OC(C)C(F)(F)F)ccn12 (single isomer, unassigned)	0.05 to 0.5 µM

Source: patent US20240254119A1 (THIRD HARMONIC BIO, INC., priority 2022, published 2024)
